{"source": "patent US9914755B2", "about": "(dated 2018)", "experiment": "Water Solubility Assay (onset of precipitation in buffer)", "settings": "concentration at which the compound remains in solution; 35 mM HEPES, 1% DMSO, 25 °C, 18 h; head says pH7.4"}
{"substance": "[(2R)-2-[(5R,6R)-3,5-dimethyl-2-oxo-1,3-oxazinan-6-yl]-2-(methylamino)acetic acid]^1 cyclosporin A [Compound 21]", "values": [{"measurement": "Aqueous Solubility pH7.4", "result": ">100", "unit": "μM"}]}
